Assay results reported in patent EP1143955B1, “A COMBINATION OF FBPase INHIBITORS AND INSULIN SENSITIZERS FOR THE TREATMENT OF DIABETES” (priority 1998, dated 2000).

System: ZDF rat
Test: Combination treatment with Rosiglitazone and Compound G in the ZDF rat - blood glucose (Example R)
Assay type: in vivo, Zucker Diabetic Fatty (ZDF) rat
Conditions: Rosiglitazone 0.0045%, Compound G 0.2% food admixture, 25 days; rats with blood glucose >600 mg/dl

Q: For `CN(CCOc1ccc(CC2SC(=O)NC2=O)cc1)c1ccccn1` (stereo not shown) [Rosiglitazone], which “Change in Blood glucose, mg/dl (day 25 vs day 0)” value is on record?
A: -107 ± 78 mg/dL
